# Ab-14 heavy chain CDR variants: yeast mating affinities

Source: Li et al. 2023 (doi:10.1038/s41467-023-39022-2), MIT Lincoln Laboratory and A-Alpha Bio; data file from the FLAb repository.

The target is the same throughout: PDVDLGDISGINAS, from the HR2 region of SARS-CoV-2 spike.

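Phage display of a naive human antibody library on the peptide gave the parent. These sequences belong to a second round, designed from the earlier measurements on random variants of the parent. Several design methods are mixed in this list. The assay is AlphaSeq: two haploid yeast populations carry antibody and antigen on their surface. The frequency of each diploid, read from paired DNA barcodes, reflects how well the two displayed proteins bind. The ratio of observed to expected reads was calibrated, replicate by replicate, on BCL2-family standards whose Kd was known from biolayer interferometry. Mating was done six times.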

The variants keep the light chain, the linker and the frameworks of Ab-14 (scFv order VH, a (GGGGS)3 linker, VL).
VH: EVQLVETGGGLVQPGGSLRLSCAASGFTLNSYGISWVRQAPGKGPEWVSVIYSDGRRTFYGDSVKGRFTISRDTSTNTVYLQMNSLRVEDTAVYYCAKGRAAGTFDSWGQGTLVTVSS
VL: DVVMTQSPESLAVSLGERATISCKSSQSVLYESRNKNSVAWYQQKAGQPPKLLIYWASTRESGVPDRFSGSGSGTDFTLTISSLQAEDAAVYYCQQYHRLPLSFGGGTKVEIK

Each variant is given by its three heavy chain CDRs, as the data file delimits them; those of the parent are GFTLNSYGIS, VIYSDGRRTFYGDSVK, GRAAGTFDS. Affinities are written as log10 Kd with Kd in nM; a lower number is a better binder. Averages over replicates are reported, and they cover detected replicates only. "not detected" marks a missing value. The strain was present, yet no cells mated with the target were sequenced in any replicate, which points to weak or no binding. The authors averaged sequences with at least three values out of six and counted those with two or fewer as poor binders.

| CDR-H1 | CDR-H2 | CDR-H3 | mean log10 Kd (nM) | seen in | signal with controls |
|---|---|---|---|---|---|
| GFQLNSYGIS | VIYSDGRRTFYADSVK | GKAAGTFDL | 1.24 | 6 of 6 | 1 of 18 |
| GFDLNEYGIS | VIYADGRRTFYTDSVK | GELAGTFDV | -0.57 | 6 of 6 | 1 of 18 |
| GFDLEDYGIS | VIYADGMRTAYADSVK | GQVAGTFDV | -0.93 | 6 of 6 | 0 of 18 |
| GFTLESYGIS | VIYSDGRRTFYADDVK | GQAAGTFDS | 1.14 | 6 of 6 | 0 of 18 |
| GFTLNQYGIS | VIYSDGTRTFYSDSVK | GRVAGTFDS | -0.73 | 6 of 6 | 0 of 18 |
| GFTLNSYGIS | VIYADGRRTFYGDDVK | GEAAGTFKS | 1.02 | 5 of 6 | 0 of 18 |
| GFDLNEYGIS | VIYADGQRTFYADSVK | GENAGTFDT | -0.26 | 6 of 6 | 0 of 18 |
| GFTLNLYGIS | VIYSDGRRTMYGDSVK | GRAEGTFDS | not detected | 0 of 6 | 0 of 18 |
| GFDLNWYGIS | VIYSDGRRTFYGDSVK | GRTAGTFDS | 0.66 | 6 of 6 | 0 of 18 |
| GFTLESYGIS | VIYADGRRTFYGDSVK | GRAAGTFDK | -0.36 | 5 of 6 | 1 of 18 |
| GFTLNSYGIS | VIYSDGRRTFYADSVK | GHAGGTFDS | 3.23 | 2 of 6 | 0 of 18 |
| GFDLNEYGIS | VIYADGRRSAYADSVK | GQLAGTFDV | -0.61 | 6 of 6 | 2 of 18 |
| GFTLNSYGIS | VIYSDGRRTYYHDSVK | GRAHGTFDS | not detected | 0 of 6 | 0 of 18 |
| GFDLNEYGIS | VIYADGVRQAYSDSVK | GNVAGTFDV | -0.42 | 6 of 6 | 1 of 18 |
| GFDLVEYGIS | VIYADGIRTVVSNDVK | GNVAGTIFV | not detected | 0 of 6 | 0 of 18 |
| GFTLNEYGIS | VIYSDGRRTFYGDSVK | GREAGTFNS | 0.49 | 6 of 6 | 0 of 18 |
| GFMLNSYGIS | VIYSDGRRTFYGDSVK | GRAAGWFNS | not detected | 0 of 6 | 0 of 18 |
| GFDLNEYGIS | VIYADGVRTAYSDSVK | GNQAGTFDM | -0.46 | 6 of 6 | 0 of 18 |
| GFDLNEYGIS | VIYADGRRTFYSDSVK | GVNAGTFDS | 0.51 | 5 of 6 | 0 of 18 |
| GFSLNSYGIS | VIYSDGRRTFYIDSVK | GQAAGTFDA | 0.11 | 6 of 6 | 0 of 18 |
| GFSLNSYGIS | VIYSDGRRTFYGDSVK | GWAAGTFDK | not detected | 0 of 6 | 0 of 18 |
| GFSLNSYGIS | VIYSDGFRTFYGDEVK | GRAAGEFDS | not detected | 0 of 6 | 0 of 18 |
| GFQLDEYGIS | VIYADGRRTFYADSVK | GNVAGTFDQ | -0.44 | 6 of 6 | 0 of 18 |
| GFTLNSYGIS | VIYSDGRREAYGDSVK | GRQAGAFDS | not detected | 0 of 6 | 0 of 18 |
| GFSLDEYGIS | VIYADGMRARYSDQVK | GVKVGNVIM | 2.19 | 1 of 6 | 0 of 18 |
| GRTLDSYGIS | VIYSDGRRTFYGDSVK | WRAAGTFDL | not detected | 0 of 6 | 0 of 18 |
| GFTLESYGIS | VIYSDGRRTFYGDSVK | GRTAGTFDT | 0.46 | 6 of 6 | 0 of 18 |
| GFTINSYGIS | VIYSDGRRTFYGDSVK | GRAAGTFDV | 2.19 | 3 of 6 | 1 of 18 |
| GFDLNSYGIS | VIYSDGRRTFYGDSVK | GRTAGTFDR | 1.28 | 5 of 6 | 0 of 18 |
| GGNLDEYGIS | VIYADGKRRQYVDNVK | GEHADAFDM | not detected | 0 of 6 | 1 of 18 |
| GFTLESYGIS | VIYSDGRRTFYDDSVK | GQKAGTFDS | 2.23 | 5 of 6 | 0 of 18 |
| GFDLNEYGIS | VIYADGKRTFYADSVK | GESAGTFDQ | -0.66 | 6 of 6 | 0 of 18 |
| GFTLNSHGIS | VIYDDGRRTFYGDSVK | DGAAGTFDS | not detected | 0 of 6 | 0 of 18 |
| GFTLNDYGIS | VIYSDGRRTAYMDSVK | GRLAGTFDS | 0.29 | 6 of 6 | 0 of 18 |
| GFSLESYGIS | VIYSDGRRTFYEDSVK | GRAAGTFDQ | 1.20 | 6 of 6 | 0 of 18 |
| GFDLNEYGIS | VIYADGKRTFYADSVK | GQIAGTFDT | -0.61 | 6 of 6 | 0 of 18 |
| GFDLNEYGIS | VIYADGRRTAYSDSVK | GNVAGTFVQ | -0.19 | 6 of 6 | 0 of 18 |
| GFTLDSYGLS | VITSDGRRTNYGDSVK | GRAAGTALS | not detected | 0 of 6 | 0 of 18 |
| GFTLNSYGIS | VIYADGRRTFYGDSVK | GRAAGTNKM | not detected | 0 of 6 | 0 of 18 |
| GFDLNDYGIS | VIYADGRRTAYIDSVK | GEVAGTFDE | -0.01 | 6 of 6 | 0 of 18 |
| GETLNSYGIS | VIYSDGRRTFYLDSVK | GRAAGTFDM | 1.83 | 1 of 6 | 0 of 18 |
| FFDLNSYGIS | VIYSDGRRTAYGDSVK | GRNAGTFDS | 0.40 | 6 of 6 | 0 of 18 |
| GFELNSYGIS | VIYADGRRTFYGDSVK | GKTAGTFDS | -0.23 | 6 of 6 | 2 of 18 |
| GFALNEYGIS | VIYSDGRRTFYQDSVK | GRAAGTFDS | 0.52 | 6 of 6 | 0 of 18 |
| GFDLNEYGIS | VIYADGVRTQYTDSVK | GEIAGTFDS | 0.18 | 3 of 6 | 0 of 18 |
| GFTLNSYGIS | VIYSDGVRTFYSDSVK | GRAGGTFYA | not detected | 0 of 6 | 0 of 18 |
| GFDLDEYGIS | VIYADGMRTAYADSVK | GQTAGTFDI | -0.23 | 6 of 6 | 0 of 18 |
| GVTLNSYGIS | VIYSDGRRTFYGDSVK | CRAAGVFFS | not detected | 0 of 6 | 0 of 18 |

Picked from the list: the 6 lowest averages where every replicate gave a value.

| CDR-H1 | CDR-H2 | CDR-H3 | mean log10 Kd (nM) | seen in | signal with controls |
|---|---|---|---|---|---|
| GFDLEDYGIS | VIYADGMRTAYADSVK | GQVAGTFDV | -0.93 | 6 of 6 | 0 of 18 |
| GFTLNQYGIS | VIYSDGTRTFYSDSVK | GRVAGTFDS | -0.73 | 6 of 6 | 0 of 18 |
| GFDLNEYGIS | VIYADGKRTFYADSVK | GESAGTFDQ | -0.66 | 6 of 6 | 0 of 18 |
| GFDLNEYGIS | VIYADGRRSAYADSVK | GQLAGTFDV | -0.61 | 6 of 6 | 2 of 18 |
| GFDLNEYGIS | VIYADGKRTFYADSVK | GQIAGTFDT | -0.61 | 6 of 6 | 0 of 18 |
| GFDLNEYGIS | VIYADGRRTFYTDSVK | GELAGTFDV | -0.57 | 6 of 6 | 1 of 18 |

Nonspecific signal, from three strains lacking the peptide, appeared in 1% of pairings of all heavy chain designs, centred on 2.08 (5% of these signals below 0.84); values are not corrected for it. Also given: how often the same scFv was detected with the empty control strains. A sequence measured in both rounds can read differently, since the two assays cover different ranges.